Laboratory results reported in ChEMBL document CHEMBL2417361, “Investigation of acyclic uridine amide and 5'-amido nucleoside analogues as potential inhibitors of the Plasmodium falciparum dUTPase” (Bioorg Med Chem, 2013).

Test: Selectivity index, ratio of Ki for human dUTPase to Ki for recombinant Plasmodium falciparum dUTPase

Row | SMILES | Ratio Ki
1 | O=c1ccn(CCCNC(c2ccccc2)c2ccccc2)c(=O)[nH]1 | 2
2 | O=c1ccn(CCCCOC(c2ccccc2)c2ccccc2)c(=O)[nH]1 | 98
3 | O=c1ccn(CCCCNC(c2ccccc2)c2ccccc2)c(=O)[nH]1 | 11
4 | O=c1ccn([C@H]2C[C@H](O)[C@@H](CNC(c3ccccc3)(c3ccccc3)c3ccccc3)O2)c(=O)[nH]1 | 46
5 | O=c1ccn([C@H]2C[C@H](O)[C@@H](CNC(c3ccccc3)c3ccccc3)O2)c(=O)[nH]1 | > 500
